Columns and labels:
[1] = system: THP-1-derived M0 macrophages; assay: MTS assay in M0 macrophages; type: cell-based, human; details: 0-20 μM, 20 h at 37 °C in serum-free RPMI, OD 490 nm, two independent experiments
Description: (§1) The optimized peptide fragment melittin 8-26 was used as a vehicle for targeting M2 macrophages, and the pro-apoptotic peptide d(KLAKLAK)2 (dKLA) was conjugated to the C-terminus of the peptide to test its cytotoxic effects on M2 macrophages. […] Next, to ascertain the loss of hemolytic effects of the optimized peptide, melittin-dKLA 8-26 was tested using an in vitro hemolysis assay. […] However, there were no hemolytic effects of melittin-dKLA 8-26 at the tested concentration of up to 40 μM (Figure 4B). […] Additionally, peptide drugs have the disadvantage of being easily decomposed in the body. Peptide drugs are stabilized using various methods, such as PEGylation. […]
(§2) Figure 4 Characterization of the optimized hybrid peptide drug, PEG-melittin-dKLA 8-26. […] The optical density was measured at 490 nm. […] The optical density of hemoglobin released in the supernatant was measured at 450 nm. […]
(§3) THP-1 cells were seeded at a density of 2 × 10^4 cells/well in a 96-well plate and polarized into M0, M1, and M2 macrophages for 24 h in the same RPMI medium composition and cytokine concentration as described for macrophage polarization. […] The absorbance was measured at 490 nm using a microplate reader (Molecular Devices, San Jose, CA, USA). All data are expressed as the mean ± SEM of two independent experiments.

[2] = system: THP-1-derived M1 macrophages; assay: MTS assay in M1 macrophages; type: cell-based, human; details: 0-20 μM, 20 h at 37 °C in serum-free RPMI, OD 490 nm, two independent experiments
Description: as §1, §2, §3

[3] = system: red blood cells; assay: Hemolysis assay on mouse red blood cells; type: cell-based, BALB/c mouse; details: mouse red blood cells in PBS, peptides 1-40 μM, 4 h at 37 °C, OD 450 nm of supernatant, 2% Triton X-100 positive control, mean of n = 3
Description: Melittin has been well-documented to have strong hemolytic effects. To diminish such adverse effects, several truncated melittin were synthesized and analyzed in vitro (Figure 2A). Mouse blood cells were treated with varying concentrations of peptides for 4 h, and the optical density was measured using a microplate reader.
Figure 2 Melittin fragments have fewer hemolytic effects than melittin. (A) Amino acid sequence of melittin and melittin-truncated peptide. (B) Hemolysis of red blood cells treated with FITC-conjugated melittin or FITC-conjugated melittin fragments at concentrations ranging from 1 μM to 40 μM and incubated at 37 °C for 4 h. […] The optical density of hemoglobin released supernatant was measured at 450 nm. […]
as §2
Blood was collected from each BALB/c mouse. […] The optical density of the samples was measured at 450 nm using a microplate reader (Molecular Devices). The percentage of hemolysis was calculated using the following equation: hemolysis (%) = (OD450 nm sample − OD450 nm negative control)/(OD450 nm positive control − OD450 nm negative control) × 100%. All data are expressed as the mean ± SEM of three independent experiments.

[4] = system: THP-1-derived M2 macrophages; assay: MTS assay in M2 macrophages; type: cell-based, human; details: 0-20 μM, 20 h at 37 °C in serum-free RPMI, OD 490 nm, two independent experiments
Description: as §1, §2, §3

Structure (SMILES) | IC50 [1] [µM] | IC50 [2] [µM] | concentration at which hemolysis was observed [3] [µM] | IC50 [4] [µM]
CC[C@H](C)[C@H](NC(=O)[C@H](CC(C)C)NC(=O)[C@H](C)NC(=O)[C@@H]1CCCN1C(=O)[C@H](CC(C)C)NC(=O)CNC(=O)[C@@H](NC(=O)[C@@H](NC(=O)[C@H](CC(C)C)NC(=O)[C@@H](N)C(C)C)[C@@H](C)O)[C@@H](C)O)C(=O)N[C@@H](CO)C(=O)N[C@@H](Cc1c[nH]c2ccccc12)C(=O)N[C@H](C(=O)N[C@@H](CCCCN)C(=O)N[C@@H](CCCNC(=N)N)C(=O)N[C@@H](CCCCN)C(=O)N[C@@H](CCCNC(=N)N)C(=O)N[C@@H](CCC(N)=O)C(=O)N[C@@H](CCC(N)=O)C(=O)NCC(=O)NCC(=O)NCC(=O)NCC(=O)N[C@@H](CO)C(=O)N[C@H](CCCCN)C(=O)N[C@H](CC(C)C)C(=O)N[C@H](C)C(=O)N[C@H](CCCCN)C(=O)N[C@H](CC(C)C)C(=O)N[C@H](C)C(=O)N[C@H](CCCCN)C(=O)N[C@H](CCCCN)C(=O)N[C@H](CC(C)C)C(=O)N[C@H](C)C(=O)N[C@H](CCCCN)C(=O)N[C@H](CC(C)C)C(=O)N[C@H](C)C(=O)N[C@H](CCCCN)C(=O)O)[C@@H](C)CC [melittin-dKLA 8-26] | 4.12 | 2.19 | > 40 | 1.45
CC[C@H](C)[C@H](NC(=O)CN)C(=O)NCC(=O)N[C@@H](C)C(=O)N[C@H](C(=O)N[C@@H](CC(C)C)C(=O)N[C@@H](CCCCN)C(=O)N[C@H](C(=O)N[C@@H](CC(C)C)C(=O)N[C@H](C(=O)N[C@H](C(=O)NCC(=O)N[C@@H](CC(C)C)C(=O)N1CCC[C@H]1C(=O)N[C@@H](C)C(=O)N[C@@H](CC(C)C)C(=O)N[C@H](C(=O)N[C@@H](CO)C(=O)N[C@@H](Cc1c[nH]c2ccccc12)C(=O)N[C@H](C(=O)N[C@@H](CCCCN)C(=O)N[C@@H](CCCNC(=N)N)C(=O)N[C@@H](CCCCN)C(=O)N[C@@H](CCCNC(=N)N)C(=O)N[C@@H](CCC(N)=O)C(=O)N[C@@H](CCC(N)=O)C(=O)NCC(=O)NCC(=O)NCC(=O)NCC(=O)N[C@@H](CO)C(=O)N[C@H](CCCCN)C(=O)N[C@H](CC(C)C)C(=O)N[C@H](C)C(=O)N[C@H](CCCCN)C(=O)N[C@H](CC(C)C)C(=O)N[C@H](C)C(=O)N[C@H](CCCCN)C(=O)N[C@H](CCCCN)C(=O)N[C@H](CC(C)C)C(=O)N[C@H](C)C(=O)N[C@H](CCCCN)C(=O)N[C@H](CC(C)C)C(=O)N[C@H](C)C(=O)N[C@H](CCCCN)C(=O)O)[C@@H](C)CC)[C@@H](C)CC)[C@@H](C)O)[C@@H](C)O)C(C)C)C(C)C [melittin-dKLA] | 1.23 | 0.737 | 5 | 0.415
